From publication PMC9463443 (Cell Discovery, 2022)

Tests used:
CENP-C^[…] = target: T1, CENP-C^[…] (human); test: cryo-EM structure; CCAN reconstituted from purified sub-complexes with CENP-A nucleosome (147 bp Widom 601), purified on Superose 6 in 20 mM HEPES-Na pH 7.5, 300 mM NaCl, 0.5 mM TCEP, cross-linked with 5 mM BS3; 3.3 Å map; no particles with the nucleosome were seen; details: both partners purified
T1 construct: CENP-C, human, […]; the sample was cross-linked with BS3; also called […] truncation of CENP-C; source: Sf9, co-infected with CENP-LN P3 virus (CENP-LNC^[…] complex), purified (Ni-NTA, SEC)

CENP-OPQUR sub-complex = target: T2, CENP-OPQUR sub-complex (human, UniProt Q9BU64 1-300; Q6IPU0 1-288; Q7L2Z9 1-268; Q71F23 1-418; Q13352 1-177); test: as above; details: both partners purified
T2 construct: CENP-O, human; CENP-P, human; CENP-Q, human; CENP-U, human; CENP-R, human; source: Sf9, purified (Ni-NTA, Mono S, SEC); copies: + + + +
T2 sequence (looked up) 1: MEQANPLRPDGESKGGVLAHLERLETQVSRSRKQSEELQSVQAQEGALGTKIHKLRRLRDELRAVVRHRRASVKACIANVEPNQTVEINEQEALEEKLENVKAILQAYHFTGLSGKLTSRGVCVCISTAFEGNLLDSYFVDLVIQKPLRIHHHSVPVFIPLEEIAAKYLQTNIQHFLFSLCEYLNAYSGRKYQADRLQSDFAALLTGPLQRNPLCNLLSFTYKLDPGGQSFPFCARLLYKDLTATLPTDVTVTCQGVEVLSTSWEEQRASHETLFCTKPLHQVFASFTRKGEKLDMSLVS
T2 sequence (looked up) 2: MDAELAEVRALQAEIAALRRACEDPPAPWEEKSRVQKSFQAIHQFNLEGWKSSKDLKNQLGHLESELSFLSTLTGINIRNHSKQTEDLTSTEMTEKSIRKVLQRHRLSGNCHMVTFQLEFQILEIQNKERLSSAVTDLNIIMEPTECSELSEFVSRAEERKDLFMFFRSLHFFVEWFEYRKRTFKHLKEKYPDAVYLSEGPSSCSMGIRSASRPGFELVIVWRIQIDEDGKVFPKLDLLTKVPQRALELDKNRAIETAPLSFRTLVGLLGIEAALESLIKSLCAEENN
T2 sequence (looked up) 3: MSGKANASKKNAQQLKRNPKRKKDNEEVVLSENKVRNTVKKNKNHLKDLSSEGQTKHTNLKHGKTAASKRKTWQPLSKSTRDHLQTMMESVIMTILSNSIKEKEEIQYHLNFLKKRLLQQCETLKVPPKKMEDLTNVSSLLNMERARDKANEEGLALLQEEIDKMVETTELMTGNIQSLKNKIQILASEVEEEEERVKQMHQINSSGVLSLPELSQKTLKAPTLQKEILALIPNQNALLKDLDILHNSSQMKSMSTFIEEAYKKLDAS
T2 sequence (looked up) 4: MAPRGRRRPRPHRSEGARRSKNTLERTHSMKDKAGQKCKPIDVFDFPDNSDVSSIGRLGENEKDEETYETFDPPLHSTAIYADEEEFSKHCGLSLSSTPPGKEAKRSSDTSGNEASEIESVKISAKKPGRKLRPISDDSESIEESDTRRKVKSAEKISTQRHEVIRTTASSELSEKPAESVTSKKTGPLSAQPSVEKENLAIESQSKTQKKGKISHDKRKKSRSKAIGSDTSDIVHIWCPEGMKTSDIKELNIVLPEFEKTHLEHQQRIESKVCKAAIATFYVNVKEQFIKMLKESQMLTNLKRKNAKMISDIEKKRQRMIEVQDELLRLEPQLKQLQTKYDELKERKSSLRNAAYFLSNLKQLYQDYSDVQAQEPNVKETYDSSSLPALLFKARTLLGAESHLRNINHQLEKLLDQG
T2 sequence (looked up) 5: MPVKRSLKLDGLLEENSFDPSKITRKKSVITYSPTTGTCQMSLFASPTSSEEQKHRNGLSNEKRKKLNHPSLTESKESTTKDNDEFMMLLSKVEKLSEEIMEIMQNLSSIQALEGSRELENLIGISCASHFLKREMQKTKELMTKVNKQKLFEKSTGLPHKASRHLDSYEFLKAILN

B1: CENP-L (natural protein, human, UniProt Q8N0S6 1-344, looked up)
chain: MDSYSAPESTPSASSRPEDYFIGATPLQKRLESVRKQSSFILTPPRRKIPQCSQLQEDVDPQKVAFLLHKQWTLYSLTPLYKFSYSNLKEYSRLLNAFIVAEKQKGLAVEVGEDFNIKVIFSTLLGMKGTQRDPEAFLVQIVSKSQLPSENREGKVLWTGWFCCVFGDSLLETVSEDFTCLPLFLANGAESNTAIIGTWFQKTFDCYFSPLAINAFNLSWMAAMWTACKMDHYVATTEFLWSVPCSPQSLDISFAIHPEDAKALWDSVHKTPGEVTQEEVDLFMDCLYSHFHRHFKIHLSATRLVRVSTSVASAHTDGKIKILCHKYLIGVLAYLTELAIFQIE
notes: CENP-L, human; source: Sf9, co-expressed with CENP-N (MultiBac), purified (Ni-NTA, SEC)
CENP-C^[…]
  binding result: binds

B2: CENP-H (natural protein, human, UniProt Q9H3R5 1-247, looked up)
chain: MEEQPQMQDADEPADSGGEGRAGGPPQVAGAQAACSEDRMTLLLRLRAQTKQQLLEYKSMVDASEEKTPEQIMQEKQIEAKIEDLENEIEEVKVAFEIKKLALDRMRLSTALKKNLEKISRQSSVLMDNMKHLLELNKLIMKSQQESWDLEEKLLDIRKKRLQLKQASESKLLEIQTEKNKQKIDLDSMENSERIKIIRQNLQMEIKITTVIQHVFQNLILGSKVNWAEDPALKEIVLQLEKNVDMM
notes: CENP-H, human; source: Hi5 insect cells, co-expressed as CENP-HIKM, purified (Ni-NTA, Mono Q, SEC)
CENP-C^[…]
  binding result: binds

B3: CENP-K (natural protein, human, UniProt Q9BS16 1-269, looked up)
chain: MNQEDLDPDSTTDVGDVTNTEEELIRECEEMWKDMEECQNKLSLIGTETLTDSNAQLSLLIMQVKCLTAELSQWQKKTPETIPLTEDVLITLGKEEFQKLRQDLEMVLSTKESKNEKLKEDLEREQRWLDEQQQIMESLNVLHSELKNKVETFSESRIFNELKTKMLNIKEYKEKLLSTLGEFLEDHFPLPDRSVKKKKKNIQESSVNLITLHEMLEILINRLFDVPHDPYVKISDSFWPPYVELLLRNGIALRHPEDPTRIRLEAFHQ
notes: CENP-K, human; source: Hi5 insect cells, co-expressed as CENP-HIKM, purified (Ni-NTA, Mono Q, SEC)
CENP-C^[…]
  binding result: binds

B4: CENP-M (natural protein, human, UniProt Q9NSP4 1-180, looked up)
chain: MSVLRPLDKLPGLNTATILLVGTEDALLQQLADSMLKEDCASELKVHLAKSLPLPSSVNRPRIDLIVFVVNLHSKYSLQNTEESLRHVDASFFLGKVCFLATGAGRESHCSIHRHTVVKLAHTYQSPLLYCDLEVEGFRATMAQRLVRVLQICAGHVPGVSALNLLSLLRSSEGPSLEDL
notes: CENP-M, human; source: Hi5 insect cells, co-expressed as CENP-HIKM, purified (Ni-NTA, Mono Q, SEC)
CENP-C^[…]
  binding result: binds

B5: CENP-LN sub-complex (complex)
chain 1: B1 chain
chain 2: not shown
notes: CENP-L, human; CENP-N, human, full length; In the cryo-EM sample CENP-LN was co-expressed with GST-CENP-C^[…]; also called CENP-LN heterodimer; wild-type CENP-LN; source: Sf9 (MultiBac), purified (Ni-NTA, SEC)
CENP-OPQUR sub-complex
  binding result: binds
